This note sets out measurements from patent US20220194911A1, “NOVEL COMPOUND FOR INHIBITING HISTONE ACETYLTRANSFERASE P300 AND ANTIFIBROTIC COMPOSITION COMPRISING SAME” (REFURE LIFE SCIENCE INC., priority 2019, published 2022).

The chains behind the UniProt entries cited, without tags or fusion partners.
UniProt Q09472, whole entry: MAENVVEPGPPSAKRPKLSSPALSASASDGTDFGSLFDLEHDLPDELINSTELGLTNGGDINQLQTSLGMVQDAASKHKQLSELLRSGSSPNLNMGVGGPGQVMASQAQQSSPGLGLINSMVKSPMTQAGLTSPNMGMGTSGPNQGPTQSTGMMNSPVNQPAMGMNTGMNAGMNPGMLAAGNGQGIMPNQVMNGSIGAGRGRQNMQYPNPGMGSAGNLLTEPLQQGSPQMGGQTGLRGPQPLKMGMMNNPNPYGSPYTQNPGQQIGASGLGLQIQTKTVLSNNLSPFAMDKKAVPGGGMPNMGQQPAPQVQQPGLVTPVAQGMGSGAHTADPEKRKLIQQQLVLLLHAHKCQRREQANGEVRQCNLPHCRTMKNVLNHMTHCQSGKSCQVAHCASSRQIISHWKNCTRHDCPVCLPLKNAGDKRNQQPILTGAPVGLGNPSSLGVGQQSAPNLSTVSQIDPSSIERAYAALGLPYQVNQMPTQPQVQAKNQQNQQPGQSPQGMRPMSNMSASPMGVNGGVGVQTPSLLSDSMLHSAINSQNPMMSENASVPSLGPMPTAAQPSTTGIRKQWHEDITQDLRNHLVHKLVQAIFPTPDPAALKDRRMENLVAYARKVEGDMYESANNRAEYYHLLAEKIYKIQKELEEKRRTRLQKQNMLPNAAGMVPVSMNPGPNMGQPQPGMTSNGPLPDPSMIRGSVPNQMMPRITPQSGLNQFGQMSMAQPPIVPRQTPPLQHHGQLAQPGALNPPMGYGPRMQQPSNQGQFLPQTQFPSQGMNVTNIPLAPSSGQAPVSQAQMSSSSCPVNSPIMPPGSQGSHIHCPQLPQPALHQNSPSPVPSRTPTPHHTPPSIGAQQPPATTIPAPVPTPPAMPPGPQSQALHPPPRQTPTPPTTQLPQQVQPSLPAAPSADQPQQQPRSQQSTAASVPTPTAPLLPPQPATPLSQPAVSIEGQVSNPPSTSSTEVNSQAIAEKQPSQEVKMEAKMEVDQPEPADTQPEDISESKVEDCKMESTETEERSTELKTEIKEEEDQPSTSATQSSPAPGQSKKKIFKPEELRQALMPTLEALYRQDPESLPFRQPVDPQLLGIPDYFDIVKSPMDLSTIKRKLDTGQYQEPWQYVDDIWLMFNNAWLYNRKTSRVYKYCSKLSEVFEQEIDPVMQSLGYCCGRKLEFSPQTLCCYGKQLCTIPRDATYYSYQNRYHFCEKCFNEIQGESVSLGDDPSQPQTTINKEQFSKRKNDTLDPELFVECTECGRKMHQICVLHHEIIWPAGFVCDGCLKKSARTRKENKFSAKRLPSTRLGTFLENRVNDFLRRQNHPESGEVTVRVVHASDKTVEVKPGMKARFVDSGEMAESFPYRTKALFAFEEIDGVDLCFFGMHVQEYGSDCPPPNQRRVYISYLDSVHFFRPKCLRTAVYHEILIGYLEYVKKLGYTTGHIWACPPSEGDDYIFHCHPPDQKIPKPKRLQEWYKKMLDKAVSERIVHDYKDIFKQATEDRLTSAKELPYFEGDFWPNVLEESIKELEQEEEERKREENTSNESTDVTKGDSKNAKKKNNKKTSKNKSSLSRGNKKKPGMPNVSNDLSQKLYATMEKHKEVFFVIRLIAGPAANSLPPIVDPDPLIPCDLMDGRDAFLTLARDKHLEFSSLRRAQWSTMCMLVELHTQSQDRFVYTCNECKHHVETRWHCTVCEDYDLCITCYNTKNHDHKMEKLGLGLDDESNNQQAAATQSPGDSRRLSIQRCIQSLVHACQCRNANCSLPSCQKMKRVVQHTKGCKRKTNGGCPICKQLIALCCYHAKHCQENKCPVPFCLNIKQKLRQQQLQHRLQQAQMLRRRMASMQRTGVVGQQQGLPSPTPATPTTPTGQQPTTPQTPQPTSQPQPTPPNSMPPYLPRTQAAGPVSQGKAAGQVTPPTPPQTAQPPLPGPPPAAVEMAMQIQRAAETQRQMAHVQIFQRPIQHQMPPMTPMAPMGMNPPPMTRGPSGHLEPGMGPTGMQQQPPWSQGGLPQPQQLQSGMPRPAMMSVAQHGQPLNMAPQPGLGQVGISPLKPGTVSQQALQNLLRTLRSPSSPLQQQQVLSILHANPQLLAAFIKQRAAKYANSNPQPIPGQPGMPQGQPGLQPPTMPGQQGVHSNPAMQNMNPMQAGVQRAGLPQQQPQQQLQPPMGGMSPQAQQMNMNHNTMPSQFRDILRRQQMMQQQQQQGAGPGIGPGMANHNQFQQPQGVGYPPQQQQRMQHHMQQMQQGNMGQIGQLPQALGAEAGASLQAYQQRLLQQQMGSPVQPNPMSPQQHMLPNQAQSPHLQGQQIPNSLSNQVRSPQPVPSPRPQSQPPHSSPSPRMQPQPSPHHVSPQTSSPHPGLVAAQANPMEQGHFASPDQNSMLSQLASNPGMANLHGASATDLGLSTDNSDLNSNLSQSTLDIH

In this test the target is HAT p300 (histone acetyltransferase p300) (Homo sapiens, UniProt Q09472). Briefly: HAT activity kit assay (Biovision K332), inhibition of HAT activity of p300. The following applies: read-out: IC50 (μM), inhibition of HAT activity; secondary screening; tested at 0.5, 1, 10 and 100 μM. Here is the method:
Candidates 1 to 67, which are HAT inhibitors manufactured based on the PCAF structure, and HAT-24, HAT-26, and HAT-28 were diluted to 100 μM, and the degree of inhibition of HAT activity of p300 (inhibitory activity) was then determined using a kit for measuring HAT activity (Biovision, Cat No. K332, U.S.A) according to the method provided by the manufacturer. Here, the tissue was treated with C646 (HAT inhibitor) as a positive control.
Candidates 1 to 14 having a good HAT activity inhibitory effect in Section were diluted to concentrations of 0.5 μM, 1 μM, 10 μM, and 100 μM. Thereafter, the degree of inhibition of HAT activity was determined in the same manner as in Section.
Synthesis Examples 1 to 19 were diluted to 100 μM, and the degree of inhibition of HAT p300 activity was then determined in the same manner as in Section. Here, the tissues were treated with C646 and Candidate 12 (HAT-12) as the control, instead of Synthesis Examples 1 to 19.

On to `COc1cc(/C=N/CCc2cccs2)cc(Cl)c1OCc1cccc(Cl)c1`, for which the IC50 is 13.1 µM. The figure for `COc1cc(/C=N/CCN2CCCCC2)cc(I)c1OCc1cccc(C#N)c1` is 35.5 µM. As for `COc1cc(C/C=N/CCc2ccccn2)cc(Cl)c1OCc1cccc(Cl)c1`, the figure is 41.7 µM. Regarding `COc1cc(/C=N/CCN2CCCCC2)cc(Br)c1OCc1cccc(C#N)c1`, the concentration for half-maximal inhibition (IC50) amounted to 27.7 µM.

Turning to `COc1cc(/C=N/CCc2ccccn2)ccc1OCc1cccc(Cl)c1`, the IC50 is 32.8 µM.

Regarding `COc1cc(/C=N/CCN2CCCCC2)cc(Cl)c1OCc1cccc(C#N)c1`, the IC50 was found to be 10.1 µM. As for `COc1cc(/C=N/CCN2CCCCC2)cc(I)c1OCc1cccc(Cl)c1`, the figure is 44.1 µM. Take `CCOC(=O)c1cccc(COc2c(Br)cc(/C=N/CCN3CCCCC3)cc2OC)c1`: the IC50 came out at 12.1 µM. As for `CCOC(=O)c1cccc(COc2c(I)cc(/C=N/CCN3CCCCC3)cc2OC)c1`, the figure is 32.4 µM.
